By UniProt entry, the sequences of proteins in these tests, tags left out. Where a name states a change or a piece, a line headed by the entry shows the natural chain unless it says otherwise.
UniProt P70498: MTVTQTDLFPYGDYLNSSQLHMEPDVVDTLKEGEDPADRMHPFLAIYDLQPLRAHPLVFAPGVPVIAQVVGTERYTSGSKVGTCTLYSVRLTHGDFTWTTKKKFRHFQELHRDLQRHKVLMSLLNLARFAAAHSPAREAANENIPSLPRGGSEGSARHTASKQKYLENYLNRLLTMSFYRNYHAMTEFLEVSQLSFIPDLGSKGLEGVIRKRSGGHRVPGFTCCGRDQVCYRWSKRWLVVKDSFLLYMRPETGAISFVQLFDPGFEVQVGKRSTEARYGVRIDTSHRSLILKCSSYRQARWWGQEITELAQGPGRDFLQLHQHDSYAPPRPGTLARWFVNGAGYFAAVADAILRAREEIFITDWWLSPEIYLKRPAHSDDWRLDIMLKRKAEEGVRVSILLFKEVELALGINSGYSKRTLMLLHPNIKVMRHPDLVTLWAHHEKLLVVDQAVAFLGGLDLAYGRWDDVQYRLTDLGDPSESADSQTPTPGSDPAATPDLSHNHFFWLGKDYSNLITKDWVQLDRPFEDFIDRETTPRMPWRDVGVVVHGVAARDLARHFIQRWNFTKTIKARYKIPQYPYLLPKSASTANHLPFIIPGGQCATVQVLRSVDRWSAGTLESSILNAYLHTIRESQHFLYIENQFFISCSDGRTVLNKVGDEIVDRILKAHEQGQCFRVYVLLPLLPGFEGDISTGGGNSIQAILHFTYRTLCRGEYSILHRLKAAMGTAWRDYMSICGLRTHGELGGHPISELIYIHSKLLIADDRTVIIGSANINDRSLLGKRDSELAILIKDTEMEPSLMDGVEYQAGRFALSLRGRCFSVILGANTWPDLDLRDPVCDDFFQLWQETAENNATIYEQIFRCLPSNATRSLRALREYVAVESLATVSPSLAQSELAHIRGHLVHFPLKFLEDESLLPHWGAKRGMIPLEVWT

In article PMC10969092, “Characterization of Lysophospholipase D Activity in Mammalian Cell Membranes” (Cells, 2024):

Biological target: T1, PLD (Rattus norvegicus, UniProt P70498)
T1 construct: PC12K membranes were incubated with either B-PC (for PLD assay) or commercial B-lyso-PC (for lyso-PLD assay); endogenous in cells; host or cells: PC12K and A7r5 cell membranes (100,000 x g pellet)
Test: In vitro fluorescent PLD assay in cell membranes (B-PC substrate with butanol, B-PBt product)
Assay type: biochemical
Settings: mammalian (PC12K) membranes, B-PBt quantified

sodium orthovanadate
IC50: ~30 µM
